Source: patent US20230109708A1, “Cellular Uptake” (Axcess (UK) Ltd, priority 2020, published 2023)

Key:
[1] = tested on: Caco-2 cells; assay: FITC-albumin uptake after chlorpromazine, adherent cells, plate reader (Example 10); assay type: cell-based; conditions: cells adherent to wells; chlorpromazine at both high and low concentrations; all chenodeoxycholate concentrations
[2] = tested on: Caco-2 cells; assay: FITC-albumin uptake after chlorpromazine, cells in suspension, plate reader (Example 11); assay type: cell-based; conditions: chlorpromazine at both high and low concentrations, all chenodeoxycholate concentrations
Experimental: 0.4 ml suspension was dispensed into each of eleven 1.5 ml plastic Eppendorf vials, and 40 ul of medium (without FBS) containing chlorpromazine at different concentrations was added to each vial, followed by incubation at 37° C. for 20 minutes.

## CN(C)CCCN1c2ccccc2Sc2ccc(Cl)cc21 [Chlorpromazine, chlorpromazine]
[1]
  effect on uptake of FITC-BSA stimulated by the bile salt: inhibits uptake
[2]
  effect on uptake of FITC-BSA stimulated by the bile salt: inhibits uptake
